Measured values: PubChem BioAssay (NCI)
Several values for one entry are separate records, joined by “and”; a condition that tells them apart may be missing. Equal entries are not always repeated.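 Interpolation was linear, between the two tested concentrations surrounding the appropriate level; five concentrations were tested over 48 hours in 96-well plates. GI50 = concentration required for 50% inhibition of growth. TGI: concentration producing complete growth inhibition.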

How the values were obtained:
Test in all cases: NCI tumour cell line growth inhibition, 48 h
786-0 renal = test system: 786-0 renal
A498 renal = test system: A498 renal
A549 NSCLC = test system: A549 NSCLC
ACHN renal = test system: ACHN renal
BT-549 breast = test system: BT-549 breast
CAKI-1 renal = test system: CAKI-1 renal
CCRF-CEM leukemia = test system: CCRF-CEM leukemia
COLO 205 colon = test system: COLO 205 colon
DLD-1 colon = test system: DLD-1 colon
DMS 273 small cell lung = test system: DMS 273 small cell lung
DU-145 prostate = test system: DU-145 prostate
EKVX NSCLC = test system: EKVX NSCLC
HCC-2998 colon = test system: HCC-2998 colon
HCT-116 colon = test system: HCT-116 colon
HCT-15 colon = test system: HCT-15 colon
HL-60(TB) leukemia = test system: HL-60(TB) leukemia
HOP-18 NSCLC = test system: HOP-18 NSCLC
HOP-62 NSCLC = test system: HOP-62 NSCLC
HOP-92 NSCLC = test system: HOP-92 NSCLC
HS 578T breast = test system: HS 578T breast
HT29 colon = test system: HT29 colon
IGROV1 ovarian = test system: IGROV1 ovarian
K-562 leukemia = test system: K-562 leukemia
KM12 colon = test system: KM12 colon
KM20L2 colon = test system: KM20L2 colon
LXFL 529 NSCLC = test system: LXFL 529 NSCLC
M14 melanoma = test system: M14 melanoma
M19-MEL melanoma = test system: M19-MEL melanoma
MALME-3M melanoma = test system: MALME-3M melanoma
MDA-MB-231 breast = test system: MDA-MB-231 breast
MDA-MB-435 = test system: MDA-MB-435
MDA-N = test system: MDA-N
MOLT-4 leukemia = test system: MOLT-4 leukemia
NCI-H226 lung = test system: NCI-H226 lung
NCI-H23 lung = test system: NCI-H23 lung
NCI-H322M lung = test system: NCI-H322M lung
NCI-H460 lung = test system: NCI-H460 lung
NCI-H522 lung = test system: NCI-H522 lung
NCI/ADR-RES ovarian = test system: NCI/ADR-RES ovarian
OVCAR-3 ovarian = test system: OVCAR-3 ovarian
OVCAR-4 ovarian = test system: OVCAR-4 ovarian
OVCAR-5 ovarian = test system: OVCAR-5 ovarian
OVCAR-8 ovarian = test system: OVCAR-8 ovarian
P388 leukemia = test system: P388 leukemia
P388/ADR leukemia = test system: P388/ADR leukemia
PC-3 prostate = test system: PC-3 prostate
RPMI-8226 leukemia = test system: RPMI-8226 leukemia
RXF 393 renal = test system: RXF 393 renal
RXF-631 renal = test system: RXF-631 renal
SF-268 CNS = test system: SF-268 CNS
SF-295 CNS = test system: SF-295 CNS
SF-539 CNS = test system: SF-539 CNS
SK-MEL-2 melanoma = test system: SK-MEL-2 melanoma
SK-MEL-28 melanoma = test system: SK-MEL-28 melanoma
SK-MEL-5 melanoma = test system: SK-MEL-5 melanoma
SK-OV-3 ovarian = test system: SK-OV-3 ovarian
SN12C renal = test system: SN12C renal
SN12K1 renal = test system: SN12K1 renal
SNB-19 CNS = test system: SNB-19 CNS
SNB-75 CNS = test system: SNB-75 CNS
SNB-78 CNS = test system: SNB-78 CNS
SR leukemia = test system: SR leukemia
SW-620 colon = test system: SW-620 colon
T-47D breast = test system: T-47D breast
TK-10 renal = test system: TK-10 renal
U251 CNS = test system: U251 CNS
UACC-62 melanoma = test system: UACC-62 melanoma
UO-31 renal = test system: UO-31 renal
XF 498 CNS = test system: XF 498 CNS

In the case of CC1CCOC(=O)/C=C/C=C/C(=O)OC2CC3OC4C5OC5(C)C(O)CC4(COC(=O)C1O)C2(C)C31CO1 (stereo not drawn), the GI50 (786-0 renal) is reported as 70.7 nM, the TGI (786-0 renal) is reported as 492 nM and the GI50 (A498 renal) is reported as 59.8 nM and 359 nM. For the same molecule, the TGI (A498 renal) was 127 nM and 835 nM, the GI50 (A549 NSCLC) was 105 nM and the TGI (A549 NSCLC) was 413 nM and 1230 nM. It also gave a GI50 (ACHN renal) of 91.7 nM, a TGI (ACHN renal) of 842 nM and a GI50 (BT-549 breast) of 13.1 nM. For the same molecule, the TGI (BT-549 breast) was 42.8 nM, the GI50 (CAKI-1 renal) was 115 nM and 249 nM and the TGI (CAKI-1 renal) was 909 nM. The GI50 (CCRF-CEM leukemia) was 6.88 nM and 33.4 nM, the TGI (CCRF-CEM leukemia) was 53.7 nM and 85.3 nM and the GI50 (COLO 205 colon) was 68.3 nM and 199 nM. For the same molecule, the TGI (COLO 205 colon) was 161 nM and 474 nM, the GI50 (DLD-1 colon) was 57.9 nM and 33.9 nM and the TGI (DLD-1 colon) was 433 nM and 160 nM. For the same molecule, the GI50 (DMS 273 small cell lung) was 59.9 nM and 52.2 nM, the TGI (DMS 273 small cell lung) was 215 nM and 395 nM and the GI50 (DU-145 prostate) was 75.4 nM. For the same molecule, the TGI (DU-145 prostate) was 747 nM, the GI50 (EKVX NSCLC) was 65 nM and 77.4 nM and the TGI (EKVX NSCLC) was 209 nM. For the same molecule, the GI50 (HCC-2998 colon) was 14.7 nM and 68.9 nM, the TGI (HCC-2998 colon) was 53 nM and 259 nM and the GI50 (HCT-116 colon) was 24 nM and 37.7 nM. For the same molecule, the TGI (HCT-116 colon) was 155 nM and 212 nM, the GI50 (HCT-15 colon) was 48.4 nM and 106 nM and the TGI (HCT-15 colon) was 151 nM and 749 nM. The GI50 (HL-60(TB) leukemia) was 4.34 nM and 25.3 nM, the TGI (HL-60(TB) leukemia) was 7.36 nM and 43.9 nM and the GI50 (HOP-18 NSCLC) was 259 nM. For the same molecule, the TGI (HOP-18 NSCLC) was 630 nM and 4490 nM, the GI50 (HOP-62 NSCLC) was 50 nM and 210 nM and the TGI (HOP-62 NSCLC) was 135 nM and 942 nM. The GI50 (HOP-92 NSCLC) was 228 nM and 136 nM, the TGI (HOP-92 NSCLC) was 867 nM and 1110 nM and the GI50 (HS 578T breast) was 1.47 nM. For the same molecule, the TGI (HS 578T breast) was 19.7 nM, the GI50 (HT29 colon) was 69 nM and 235 nM and the TGI (HT29 colon) was 185 nM and 1730 nM. The GI50 (IGROV1 ovarian) was 39.9 nM and 120 nM, the TGI (IGROV1 ovarian) was 148 nM and 600 nM and the GI50 (K-562 leukemia) was 7.79 nM and 30.7 nM. The TGI (K-562 leukemia) was 103 nM and 97.6 nM, the GI50 (KM12 colon) was 23 nM and 77 nM and the TGI (KM12 colon) was 202 nM and 438 nM. For the same molecule, the GI50 (KM20L2 colon) was 268 nM and 344 nM, the TGI (KM20L2 colon) was 709 nM and 1560 nM and the GI50 (LXFL 529 NSCLC) was 20.8 nM. It also gave a TGI (LXFL 529 NSCLC) of 53.8 nM, a GI50 (M14 melanoma) of 19 nM and a TGI (M14 melanoma) of 74.9 nM. The TGI (M19-MEL melanoma) was 300 nM and 232 nM, the GI50 (MALME-3M melanoma) was 8.89 nM and 40.2 nM and the TGI (MALME-3M melanoma) was 24.4 nM and 101 nM. The GI50 (MDA-MB-231 breast) was 53.4 nM, the TGI (MDA-MB-231 breast) was 402 nM and the GI50 (MDA-MB-435) was 14.3 nM. The TGI (MDA-MB-435) was 38.4 nM, the GI50 (MDA-N) was 12.9 nM and the TGI (MDA-N) was 41.1 nM. The GI50 (MOLT-4 leukemia) was 8.48 nM and 40.2 nM, the TGI (MOLT-4 leukemia) was 483 nM and 111 nM and the GI50 (NCI-H226 lung) was 50.3 nM and 43.8 nM. For the same molecule, the TGI (NCI-H226 lung) was 119 nM and 120 nM, the GI50 (NCI-H23 lung) was 52.3 nM and 297 nM and the TGI (NCI-H23 lung) was 119 nM and 989 nM. For the same molecule, the GI50 (NCI-H322M lung) was 317 nM, the TGI (NCI-H322M lung) was 778 nM and 2360 nM and the GI50 (NCI-H460 lung) was 27.2 nM and 42.2 nM. The TGI (NCI-H460 lung) was 94.2 nM and 211 nM, the TGI (NCI-H522 lung) was 24.3 nM and 79.3 nM and the TGI (NCI/ADR-RES ovarian) was 6650 nM. The GI50 (OVCAR-3 ovarian) was 41 nM and 49 nM, the TGI (OVCAR-3 ovarian) was 616 nM and 239 nM and the GI50 (OVCAR-4 ovarian) was 76 nM and 143 nM. The TGI (OVCAR-4 ovarian) was 191 nM and 496 nM, the GI50 (OVCAR-5 ovarian) was 79.8 nM and the TGI (OVCAR-5 ovarian) was 275 nM and 2020 nM. For the same molecule, the GI50 (OVCAR-8 ovarian) was 63.2 nM and 226 nM, the TGI (OVCAR-8 ovarian) was 174 nM and 486 nM and the GI50 (P388 leukemia) was 17.5 nM. It also gave a TGI (P388 leukemia) of 92.7 nM, a GI50 (P388/ADR leukemia) of 212 nM and a TGI (P388/ADR leukemia) of 655 nM. The GI50 (PC-3 prostate) was 19.3 nM, the TGI (PC-3 prostate) was 66.6 nM and the GI50 (RPMI-8226 leukemia) was 6.98 nM and 26.2 nM. The TGI (RPMI-8226 leukemia) was 100 nM and 60.2 nM, the GI50 (RXF 393 renal) was 75.2 nM and 181 nM and the TGI (RXF 393 renal) was 273 nM and 620 nM. For the same molecule, the GI50 (RXF-631 renal) was 231 nM, the TGI (RXF-631 renal) was 717 nM and the GI50 (SF-268 CNS) was 100 nM and 197 nM. The TGI (SF-268 CNS) was 785 nM and 634 nM, the GI50 (SF-295 CNS) was 279 nM and 311 nM and the TGI (SF-295 CNS) was 786 nM and 715 nM. For the same molecule, the GI50 (SF-539 CNS) was 12.3 nM and 56.3 nM, the TGI (SF-539 CNS) was 49.9 nM and 195 nM and the GI50 (SK-MEL-2 melanoma) was 60.3 nM. For the same molecule, the TGI (SK-MEL-2 melanoma) was 245 nM, the GI50 (SK-MEL-28 melanoma) was 23.3 nM and 38.9 nM and the TGI (SK-MEL-28 melanoma) was 221 nM and 140 nM. For the same molecule, the GI50 (SK-MEL-5 melanoma) was 8.83 nM and 44.5 nM, the TGI (SK-MEL-5 melanoma) was 35.4 nM and 122 nM and the GI50 (SK-OV-3 ovarian) was 69.1 nM. For the same molecule, the GI50 (SN12C renal) was 140 nM, the TGI (SN12C renal) was 526 nM and 3930 nM and the GI50 (SN12K1 renal) was 30.4 nM. For the same molecule, the TGI (SN12K1 renal) was 57.6 nM, the GI50 (SNB-19 CNS) was 6.92 nM and 52.6 nM and the TGI (SNB-75 CNS) was 73.3 nM and 460 nM. For the same molecule, the GI50 (SNB-78 CNS) was 215 nM and 109 nM, the TGI (SNB-78 CNS) was 615 nM and 461 nM and the GI50 (SR leukemia) was 7.42 nM. The GI50 (SW-620 colon) was 54.3 nM and 80.2 nM, the GI50 (T-47D breast) was 4.84 nM and the TGI (T-47D breast) was 48.6 nM. For the same molecule, the GI50 (TK-10 renal) was 127 nM, the GI50 (U251 CNS) was 11.8 nM and 70.7 nM and the GI50 (UACC-62 melanoma) was 61.8 nM and 181 nM. The TGI (UACC-62 melanoma) was 168 nM and 560 nM, the GI50 (UO-31 renal) was 162 nM and the TGI (UO-31 renal) was 534 nM and 1440 nM. For the same molecule, the GI50 (XF 498 CNS) was 89.4 nM and 61.4 nM and the TGI (XF 498 CNS) was 418 nM and 173 nM.
